Here are results for two molecules from PubChem BioAssay AID504423 (Broad Institute, 2011).

The structures appear in SMILES notation. This is a selection; strong and weak results do not stand in their true shares. Active and inactive are the calls of the source.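 Rule for the calls: active = highest replicate inhibition at or above 60% at 9 µM, even if other replicates fall short; inactive = all replicates below 60% inhibition.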

As a reminder, the inhibition is the change of the read-out against control, counted positive when it falls.

The assay has as its system Kaposi's sarcoma herpesvirus LANA C-terminal domain (residues 932-1162) DNA binding. In words: inhibitors of KSHV C-LANA binding to DNA, primary screen, biochemical, fluorescence polarization, FAM-LBS DNA, MBP-C-LANA, single point (AID 504423).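 Note: 0% = neutral control wells and 100% = 4 µM acridine orange control.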 The settings on record: at 9 µM, active compounds read high.
For `CCC(=O)N(c1ccccc1)C1(COC)CCN(CCn2nnn(CC)c2=O)CC1`, the inhibition was inactive: -1.8%.

As to `CCC(=O)N(c1ccccc1)C1(COC)CCN(CCc2cccs2)CC1`, the inhibition is inactive: -1.04%.
